{"source": "patent US20020160991A1", "origin": "cited, not measured here"}
{"substance": "triacetyl-beta-cyclodextrin", "values": [{"measurement": "solubility in water", "value": "insoluble"}]}
{"substance": "G-2-beta-cyclodextrin", "values": [{"measurement": "solubility in water", "value": "147 % soluble (w/v)"}]}
